Here are results for 1 substance from patent US5948749A, “Pharmaceutical preparations for intranasal administration” (Fuji Yakuhin Company, Limited, priority 1996, dated 1999).

In the data set the test system is ophthalmic mucous membrane. Particulars: rabbit, in vivo. How it is done:
The testing method of the present test was based on the guidelines given by OECD. That means, 3 rabbits were used in this study, and a test drug was administered once into one eye of a rabbit in the conjunctival sac, and the other eye was used as control. […] Eyes were washed using lukewarm water of about 35° C. at the observation 24 hours after the administration. Scores of the conjunctival reaction obtained by administration of each test drug were calculated according to the assessment criteria of Draize method. The maximum of total score at each observation time was obtained for each test drug and for each test animal, and the average was calculated, then irritation evaluation in 8 stages (FIG. 9) was carried out according to the Kay and Calandra ophthalmic mucous membrane irritation classification method.

Take “styrene-divinylbenzene copolymer [styrene-divinylbenzene copolymer resin]”: the “Kay and Calandra ophthalmic mucous membrane irritation classification (8 levels)” value is listed as “Minimally irritating”; the “average value (score) of the maximum Draize score” value is reported as 2.7.
